Data reported in patent US12385839B2, “Use of protein in predicting drug properties” (priority 2021, dated 2025).
“And” between values parts separate entries of the source, which are not always exact repeats. Identical values can stand only once.

By UniProt entry, the sequences of proteins in these tests, tags left out. Residues count along the entry.
UniProt P02768, 25-609: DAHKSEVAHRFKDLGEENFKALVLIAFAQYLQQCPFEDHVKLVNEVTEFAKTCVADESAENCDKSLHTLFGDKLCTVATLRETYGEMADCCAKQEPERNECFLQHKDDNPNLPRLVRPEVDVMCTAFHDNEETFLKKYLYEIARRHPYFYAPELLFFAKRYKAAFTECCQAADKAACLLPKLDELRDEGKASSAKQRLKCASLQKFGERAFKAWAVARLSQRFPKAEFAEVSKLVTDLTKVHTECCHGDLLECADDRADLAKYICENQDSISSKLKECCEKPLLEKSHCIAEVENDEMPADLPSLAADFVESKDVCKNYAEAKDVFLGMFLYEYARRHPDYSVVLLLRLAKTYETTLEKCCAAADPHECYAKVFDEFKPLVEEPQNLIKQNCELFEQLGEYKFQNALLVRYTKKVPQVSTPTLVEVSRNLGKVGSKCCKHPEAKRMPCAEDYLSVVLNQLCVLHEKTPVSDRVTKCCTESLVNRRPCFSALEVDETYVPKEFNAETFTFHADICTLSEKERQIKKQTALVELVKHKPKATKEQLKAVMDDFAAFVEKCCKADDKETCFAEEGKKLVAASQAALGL

Tests used:
[1] = target: human serum albumin (HSA) (Homo sapiens, UniProt P02768); assay: Fluorescence emission spectrum (quenching) of HSA with carbamate pesticides; assay type: binding; settings: modelling table
Experimental: the mixed solution to be tested was preheated at […] for 3 minutes, and the emission spectrum of HSA with carbamate pesticides was measured at 300-500 nm . The excitation wavelength was set at 280 nm , and the slit width for both excitation and emission was 15 nm; the HSA concentration was kept constant at 5×10^−7 M, and the pesticide concentration was (0-105)×10^−7 M.
The internal filtering effect of fluorescence signal was corrected according to the following formula: Fcor=Fobsexp[(Aex+Aem)/2] (1);
in this formula, Fcor and Fobs represent corrected fluorescence signal and observed fluorescence signal, respectively, and Aex and Aem represent absorbance of the mixed solution to be tested at excitation wavelength and emission wavelengths, respectively; the quenching constant, number of binding sites, binding constant, free energy and binding distance of different drugs were obtained by fluorescence emission spectra, and a BP neural network model was obtained. Specifically, they were obtained as follows:
There is a linear relationship between F0/F and [Q] to distinguish whether it is static quenching or dynamic quenching. The fluorescence quenching data are analyzed by Stern-Volmer equation to clarify the quenching mechanism: F0/F=1+KSV[Q]=1+Kqτ0[Q] (2);
in the formula, F0 and F are fluorescence signals […] quencher, respectively. […]

[2] = modelling table; cited from earlier work

SMILES: CNC(=O)O/N=C(\CS(C)(=O)=O)C(C)(C)C [Thiofanox-sulfone, thiofanox sulfone]
- Binding distance/r [1]: 2.907 and 1.702
- LD50 [2]: 1.9 mg/kg and 3.8 mg/kg
